Tested on: Hepg2s spheroids
Format: cell-based
Conditions: compound in isolation, most trials
Experimental: Media changes were on alternative days. […] DMSO controls were added on each plate.
In some of the following Examples, human 3D cell culture was employed using liver Hepg2 cells. 3D cell culture is known to accurately replicate a cell's native environment. During embryonic development, cells aggregate and self-assemble into complex multi-cellular structures. The same aggregation process can likewise occur in in vitro culture systems if cell-cell cohesion is favoured over cell attachment to a substrate. The resulting 3D cell culture aggregates are known as spheroids. […] A standard method of spheroid formation in U-bottom low adhesion plates was used in the Examples herein.
This is because, as the spheroids grow, only the peripheral cells obtain oxygen and nutrients from the cell culture medium. The inner cells die from cell death necrosis, with the formation of large necrotic cores (observable though use of standard live dead stains). Thus, necrotic core formation represents a naturally occurring hypoxic and nutrient stress. This resembles multiple forms of shock in humans where blood flow carrying nutrients and oxygen is disrupted to certain cells, tissues and/or organs.

Substance: ryanodine
- level of cell death / toxicity in isolation relative to control: greater level of cell death than the control
